ChEMBL document CHEMBL2034878, “Chiral resolution, absolute configuration assignment and biological activity of racemic diarylpyrimidine CH(OH)-DAPY as potent nonnucleoside HIV-1 reverse transcriptase inhibitors” (Eur J Med Chem, 2012)

Molecular target: Human immunodeficiency virus type 1 reverse transcriptase (Human immunodeficiency virus 1, UniProt Q72547)
Experiment: Inhibition of HIV1 wildtype reverse transcriptase using poly(rA)/oligo(dT)15 as template by colometric streptavidin alkaline phosphate reporter assay

**Q.** With `Cc1cc(C#N)cc(C)c1Oc1nc(Nc2ccc(C#N)cc2)nc(N)c1Br` [ETRAVIRINE] as the compound, how does the IC50 read?
**A.** 980 nM
